Experiments:
human CB2 receptor [1] = biological target: T1, human CB2 receptor (Homo sapiens (Human), UniProt P34972); format: cell-based; details: read-out: cAMP Assay CB2 Receptor IC50
Excerpt: (§1) The cDNA clones for human HA-tagged CB1 and CB2 receptors were obtained from the Missouri S&T cDNA Resource Center (www.cdna.org) in cloning vector pcDNA3.1+. The vector containing the human CB2 receptor was transfected directly into CHO-KI cells obtained from ATCC. The HA-tagged human CB1 receptor sequence was subcloned into the pef4-V5-HisA vector with Kpn1 and Pme1 restriction enzymes and subsequently transfected into CHO-K1 cells. Cells were clonally isolated by limited dilution and screened by immunocytochemistry for expression of the HA tag.
Cells were maintained in DMEM/F12 media supplemented with 10% fetal bovine serum (FBS), 100 units/ml penicillin and 100 μg/ml streptomycin and 2 mM L-glutamine. Transfected cell lines were maintained with additional 150 ug/ml zeocin for pEF HA-CB1 transfected cells and 500 ug/ml G-418 for pcDNA HA-CB2 transfected cells (all reagents obtained from Invitrogen).
Cells were seeded at a density of 10,000 cells per well in poly-L-lysine treated 96-well culture plates (BD Biosciences). […] Radioactive counts within the supernatant were then determined as described for competition binding assays.
pIC50 values were determined from cAMP assays by fitting a sigmoidal concentration response curve using Prism 4.02.

human CB2 receptor [2] = biological target: T1, human CB2 receptor; assay: Membrane competition binding assay with [3H]-CP 55,940, CHO-CB2 membranes
Excerpt: as §1, with “tag. […]” for “tag.”
Cells were grown to confluence and harvested in ice cold phosphate buffered saline with 5 mM EDTA. […] Protein concentration was determined using the Dc protein assay kit (BioRad, Hercules, Calif., USA). […]
Radioactivity was determined by incubation of filters with Irgasafe scintillation fluid (PerkinElmer) and scintillation counting in a Wallac Trilux using Microbeta Trilux software. Data was analysed using the Prism 4.02 programme (GraphPad Software, San Deigo, Calif., USA).
All data was analyzed using Prism 4.02. For binding data the Ki was determined from IC50 values derived from competition binding data fitted with one site competition non-linear regression analysis by Prism 4.02 using the Kd values reported above.

human CB2 receptor [3] = biological target: T1, human CB2 receptor; assay: Membrane [35S]GTPγS binding assay; format: biochemical; details: human CB2 CHO-K1 membranes, mean (95% confidence interval), n = 5
Method: Human CB2 expressing CHO-K1 membranes (5 μg per incubation mixture) were diluted in 50 mM Tris-HCl (pH 7.5) and 0.5 mM EDTA and added to HU compounds in a pre-mixed incubation cocktail. Final incubation concentrations were 55 mM Tris-HCl (pH 7.4), 1 mM EDTA, 100 mM NaCl, 5 mM MgCl2, 0.5% BSA, 50 μM GDP, 0.2 nM [^35S]GTPγS (PerkinElmer) with varied HU compound concentration and 5 μg membrane. Incubations were continued for 60 minutes at 30° C. in a shaking water bath. Assays were terminated by addition of 2 ml ice cold wash buffer (50 mM Tris-HCl, pH 7.5 and 5 mM MgCl2) and filtration through pre-soaked GF/C filters (Whatman), followed by two further washes. adioactivity was determined as described for competition binding assays.
Data was analyzed using the Prism 4.02 programme (GraphPad Software, San Deigo, Calif., USA). IC50 and EC50 values, as determined from sigmoidal curves, were generated from drug concentrations plotted in log scale. […] It is possible to display data as an average, plus or minus the standard error of the mean in log form, however, this is not easily interpreted or compared to other values. […] The Pearson value, an indication of linearity, was determined for Ki and IC50 or EC50 results obtained for CB2 receptors in binding, cAMP or GTPγS experiments, respectively.

## CCCCCCC(C)(C)c1cc(OC)c([C@@H]2C=C(CO)[C@@H]3C[C@H]2C3(C)C)c(OC)c1 [HU-308, [(1R,2R,5R)-2-[2,6-dimethoxy-4-(2-methyloctan-2-yl)phenyl]-7,7-dimethyl-4-bicyclo[3.1.1]hept-3-enyl]methanol, reference compound]
Human CB2 receptor [1]
  IC50: 0.117 µM
Human CB2 receptor [2]
  Ki: 0.014 µM
Human CB2 receptor [3]
  EC50: 0.0183 µM

— patent publication US9365534B2, “Arylated camphenes, processes for their preparation and uses thereof” (Yissum Research Development Company of the Hebrew …, priority 2009, dated 2016)
